{"source": "patent US9211260B2", "about": "“Methods of reducing the effects of exposure to a mustard compound by administering RLIP76” (dated 2015)", "system": "mice", "test": "Melphalan dose escalation study in mice", "settings": "dose escalation with three concentrations, regression analysis", "data": [{"smiles": "N[C@@H](Cc1ccc(N(CCCl)CCCl)cc1)C(=O)O", "values": [{"measurement": "LD90/30", "value": 25.2, "unit": "mg/kg"}]}]}
